# According to publication PMC6941952, “A homogeneous bioluminescent immunoassay to probe cellular signaling pathway regulation” (Communications Biology, 2020):
# Several values for one entry are separate records, joined by “and”; a condition that tells them apart may be missing. Equal values may be shown once.
# Assays:
# STAT3 Phospho-Tyr705 = assay: NanoBiT pSTAT3 cell-based immunoassay in A431 cells; set-up: species or system human; settings: for P-STAT3, Average: background subtracted, average of replicates
# Protocol: Prior to NanoBiT Cell-Based Immunoassay, 50,000 cells were seeded in 160 µl of complete growth media per well of a 96-well plate and incubated overnight. […] If necessary, the cell culture media were replaced with serum-free media after the cells were stably adherent on the plate and incubated overnight. To treat cells with activators or inhibitors, medium was changed to 30 µl of medium containing inhibitors. If activation of a specific pathway is needed, the cells were stimulated with 10 µl of medium containing activators. To lyse the cells, 10 µl of lysis buffer containing 0.1% digitonin diluted in 1X immunoassay buffer with protease and phosphatase inhibitors was added and the plates were mixed vigorously for 20 min. Then, 50 µl of an antibody mix containing two primary antibodies against the target protein and NanoBiT detecting antibodies (0.3 µl each per well), diluted in 1X immunoassay buffer was added to the lysates. The plates were incubated at 23 °C for 90 min, followed by the addition of 25 µl of Nano-Glo® reagent consisting of Nano-Glo® Luciferase Assay Substrate mixed with 1X immunoassay buffer. Luminescence was measured using a plate-reading luminometer.
# Single dose or dose response inhibitor treatments were performed prior to activation of the pathways as follows. For IκBα, the cells were treated in 30 µl medium with IKK16 or MG132 for 60 min before the addition of 10 µl of DMEM containing appropriate concentration of TNFα. To measure phosphorylation of AKT or STAT3, the corresponding NanoBiT immunoassays were developed with MCF-7 or A431 cells, respectively, according the same scheme used to develop the IκBα assay using the primary antibodies for AKT and STAT3 described in the reagents section. […] Treatment with LY294002 was performed in 30 µl medium and cells were incubated for 60 min before the addition of 1 µM Insulin. To measure STAT3 phosphorylation, A431 cells were incubated overnight in DMEM medium without serum. […] After addition of the stimulators, the cells were incubated for additional times as follows. IκBα phosphorylation and degradation analyses required both time courses and single time points as described in figures. […] The NanoBiT immunoassay protocol was followed as described above.
# (§1) All 96-well assay plates were read using a GloMax® 96 Microplate Luminometer from Promega. The instrument was set to 0.5 s integration time. In order to obtain net change of signal, the reagent background values (signal from the well containing all reagent except primary antibodies) were subtracted from the sample values. To plot and analyze the data, Microsoft Excel and GraphPad Prism® Software were used. IC50 values were determined by using a nonlinear regression fit to a sigmoidal dose response (variable slope).
# total STAT3 = assay: NanoBiT cell-based immunoassay, total STAT3 in A431 cells; set-up: species or system human; settings: for Total STAT3, Average: background subtracted, average of replicates; for Total Stat3, Raw data / Total Stat3, Subtract reagent background: single replicates
# Protocol: Prior to NanoBiT Cell-Based Immunoassay, 50,000 cells were seeded in 160 µl of complete growth media per well of a 96-well plate and incubated overnight. The cells were checked under microscope and it was determined that 50,000 cells per well in 96-well plate is under 90% confluency for all cells tested. If necessary, the cell culture media were replaced with serum-free media after the cells were stably adherent on the plate and incubated overnight. To treat cells with activators or inhibitors, medium was changed to 30 µl of medium containing inhibitors. If activation of a specific pathway is needed, the cells were stimulated with 10 µl of medium containing activators. To lyse the cells, 10 µl of lysis buffer containing 0.1% digitonin diluted in 1X immunoassay buffer with protease and phosphatase inhibitors was added and the plates were mixed vigorously for 20 min. Then, 50 µl of an antibody mix containing two primary antibodies against the target protein and NanoBiT detecting antibodies (0.3 µl each per well), diluted in 1X immunoassay buffer was added to the lysates. The plates were incubated at 23 °C for 90 min, followed by the addition of 25 µl of Nano-Glo® reagent consisting of Nano-Glo® Luciferase Assay Substrate mixed with 1X immunoassay buffer. Luminescence was measured using a plate-reading luminometer.
# Single dose or dose response inhibitor treatments were performed prior to activation of the pathways as follows. For IκBα, the cells were treated in 30 µl medium with IKK16 or MG132 for 60 min before the addition of 10 µl of DMEM containing appropriate concentration of TNFα. To measure phosphorylation of AKT or STAT3, the corresponding NanoBiT immunoassays were developed with MCF-7 or A431 cells, respectively, according the same scheme used to develop the IκBα assay using the primary antibodies for AKT and STAT3 described in the reagents section. For the AKT assay, MCF-7 cells were incubated overnight in phenol-red free DMEM medium (Gibco #21063-029) without serum. Treatment with LY294002 was performed in 30 µl medium and cells were incubated for 60 min before the addition of 1 µM Insulin. To measure STAT3 phosphorylation, A431 cells were incubated overnight in DMEM medium without serum. […] After addition of the stimulators, the cells were incubated for additional times as follows. IκBα phosphorylation and degradation analyses required both time courses and single time points as described in figures. For AKT and STAT3, cells were treated with Insulin or IL-6 for 10 min and 30 min, respectively. The NanoBiT immunoassay protocol was followed as described above.
# as §1
# [1] = IL-6 +Ruxolitinib, single replicates
# [2] = inhibitor 0.0190735 nM, IL-6 10 ng/ml
# [3] = inhibitor 0.038147 nM, IL-6 10 ng/ml
# [4] = inhibitor 0.0762939 nM, IL-6 10 ng/ml
# [5] = inhibitor 0.152588 nM, IL-6 10 ng/ml
# [6] = inhibitor 0.305176 nM, IL-6 10 ng/ml
# [7] = inhibitor 0.610352 nM, IL-6 10 ng/ml
# [8] = inhibitor 1.2207 nM, IL-6 10 ng/ml
# [9] = inhibitor 2.44141 nM, IL-6 10 ng/ml
# [10] = inhibitor 4.88281 nM, IL-6 10 ng/ml
# [11] = inhibitor 9.76562 nM, IL-6 10 ng/ml
# [12] = inhibitor 19.5312 nM, IL-6 10 ng/ml
# [13] = inhibitor 39.0625 nM, IL-6 10 ng/ml
# [14] = inhibitor 78.125 nM, IL-6 10 ng/ml
# [15] = inhibitor 156.25 nM, IL-6 10 ng/ml
# [16] = inhibitor 312.5 nM, IL-6 10 ng/ml
# [17] = inhibitor 625 nM, IL-6 10 ng/ml
# [18] = inhibitor 2500 nM, IL-6 10 ng/ml
# [19] = inhibitor 5000 nM, IL-6 10 ng/ml
# [20] = substance alone, single replicates
compound,measurement,setting,value
N#CC[C@H](C1CCCC1)n1cc(-c2ncnc3[nH]ccc23)cn1 [Ruxolitinib],"P-STAT3, Average",STAT3 Phospho-Tyr705; IL-6 +Ruxolitinib,12717
same,P-STAT3 Raw data,STAT3 Phospho-Tyr705; [1],116100 and 116600 and 113500
same,P-STAT3 Subtract reagent background,STAT3 Phospho-Tyr705; [1],13417 and 13917 and 10817
same,P-STAT3 Raw data,STAT3 Phospho-Tyr705; [2],257300 and 246500 and 233700
same,P-STAT3 Subtract reagent background,STAT3 Phospho-Tyr705; [2],156000 and 145200 and 132400
same,P-STAT3 Raw data,STAT3 Phospho-Tyr705; [3],256100 and 261500 and 231400
same,P-STAT3 Subtract reagent background,STAT3 Phospho-Tyr705; [3],154650 and 160050 and 129950
same,P-STAT3 Raw data,STAT3 Phospho-Tyr705; [4],255500 and 250300 and 235000
same,P-STAT3 Subtract reagent background,STAT3 Phospho-Tyr705; [4],155910 and 150710 and 135410
same,P-STAT3 Raw data,STAT3 Phospho-Tyr705; [5],255700 and 280000 and 255200
same,P-STAT3 Subtract reagent background,STAT3 Phospho-Tyr705; [5],155315 and 179615 and 154815
same,P-STAT3 Raw data,STAT3 Phospho-Tyr705; [6],258100 and 254400 and 250000
same,P-STAT3 Subtract reagent background,STAT3 Phospho-Tyr705; [6],159295 and 155595 and 151195
same,P-STAT3 Raw data,STAT3 Phospho-Tyr705; [7],244000 and 241000 and 250600
same,P-STAT3 Subtract reagent background,STAT3 Phospho-Tyr705; [7],146610 and 143610 and 153210
same,P-STAT3 Raw data,STAT3 Phospho-Tyr705; [8],257700 and 257900 and 230400
same,P-STAT3 Subtract reagent background,STAT3 Phospho-Tyr705; [8],157845 and 158045 and 130545
same,P-STAT3 Raw data,STAT3 Phospho-Tyr705; [9],266600 and 245900 and 218600
same,P-STAT3 Subtract reagent background,STAT3 Phospho-Tyr705; [9],169855 and 149155 and 121855
same,P-STAT3 Raw data,STAT3 Phospho-Tyr705; [10],225900 and 226900 and 235900
same,P-STAT3 Subtract reagent background,STAT3 Phospho-Tyr705; [10],131715 and 132715 and 141715
same,P-STAT3 Raw data,STAT3 Phospho-Tyr705; [11],177600 and 230100 and 210700
same,P-STAT3 Subtract reagent background,STAT3 Phospho-Tyr705; [11],85335 and 137835 and 118435
same,P-STAT3 Raw data,STAT3 Phospho-Tyr705; [12],217900 and 227500 and 240800
same,P-STAT3 Subtract reagent background,STAT3 Phospho-Tyr705; [12],139500 and 116600 and 126200
same,P-STAT3 Raw data,STAT3 Phospho-Tyr705; [13],207600 and 195600 and 193900
same,P-STAT3 Subtract reagent background,STAT3 Phospho-Tyr705; [13],92450 and 106150 and 94150
same,P-STAT3 Raw data,STAT3 Phospho-Tyr705; [14],163400 and 161700
same,P-STAT3 Subtract reagent background,STAT3 Phospho-Tyr705; [14],62110 and 63810
same,P-STAT3 Raw data,STAT3 Phospho-Tyr705; [15],136900 and 139600 and 147700
same,P-STAT3 Subtract reagent background,STAT3 Phospho-Tyr705; [15],47315 and 36515 and 39215
same,P-STAT3 Raw data,STAT3 Phospho-Tyr705; [16],126400 and 125700 and 124300
same,P-STAT3 Subtract reagent background,STAT3 Phospho-Tyr705; [16],25495 and 27595 and 26895
same,P-STAT3 Raw data,STAT3 Phospho-Tyr705; [17],120800 and 122000 and 128400
same,P-STAT3 Subtract reagent background,STAT3 Phospho-Tyr705; [17],31010 and 23410 and 24610
same,P-STAT3 Raw data,STAT3 Phospho-Tyr705; [18],117400 and 121900 and 116400
same,P-STAT3 Subtract reagent background,STAT3 Phospho-Tyr705; [18],19655 and 20655 and 25155
same,P-STAT3 Raw data,STAT3 Phospho-Tyr705; [19],120000 and 115000
same,P-STAT3 Subtract reagent background,STAT3 Phospho-Tyr705; [19],20815 and 25815
same,P-STAT3 Raw data,"STAT3 Phospho-Tyr705; inhibitor 10000 nM, IL-6 10 ng/ml",106300 and 118200 and 101900
same,"P-STAT3, Average",STAT3 Phospho-Tyr705; substance alone,9717
same,P-STAT3 Raw data,STAT3 Phospho-Tyr705; [20],114100 and 114700 and 108400
same,P-STAT3 Subtract reagent background,STAT3 Phospho-Tyr705; [20],11417 and 12017 and 5717
same,"Total STAT3, Average",total STAT3; IL-6 +Ruxolitinib,1624317
same,"Total Stat3, Raw data",total STAT3; IL-6 +Ruxolitinib,1435000 and 1958000 and 1788000
same,"Total Stat3, Subtract reagent background",total STAT3; IL-6 +Ruxolitinib,1855317 and 1685317 and 1332317
same,"Total STAT3, Average",total STAT3; substance alone,1546650
same,"Total Stat3, Raw data",total STAT3; substance alone,1364000 and 1867000 and 1717000
same,"Total Stat3, Subtract reagent background",total STAT3; substance alone,1764317 and 1614317 and 1261317
IL-6,"Total Stat3, Raw data",total STAT3; substance alone,1361000
same,"Total Stat3, Subtract reagent background",total STAT3; substance alone,1258317
